This note sets out measurements from US20090099157A1, “TETRAHYDRO-PYRAZOLO-PYRIDINE THIOETHER MODULATORS OF CATHEPSIN S” (priority 2007, published 2009).

The chains behind the UniProt entries cited, without tags or fusion partners. Residues count along the entry.
UniProt P25774, 115-331: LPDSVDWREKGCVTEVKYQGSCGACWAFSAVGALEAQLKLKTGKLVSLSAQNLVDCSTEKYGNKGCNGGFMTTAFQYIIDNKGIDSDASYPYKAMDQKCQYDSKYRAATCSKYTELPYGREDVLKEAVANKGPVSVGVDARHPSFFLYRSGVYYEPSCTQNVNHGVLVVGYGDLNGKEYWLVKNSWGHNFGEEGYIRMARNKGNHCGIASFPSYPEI

Structures are written as SMILES.

The target of this test is Recombinant human cathepsin S (CatS) (Homo sapiens, UniProt P25774). The experiment in a line: biochemical.

For the compound `CS(=O)(=O)N1CCc2c(c(-c3ccc(C(F)(F)F)c(SCCN4CCOC(CO)C4)c3)nn2CC(O)CN2CCC(O)(c3ccccn3)CC2)C1` (stereo not drawn) [Example 844, 1-(2-Hydroxy-3-{3-[3-({2-[2-(hydroxymethyl)morpholin-4-yl]ethyl}sulfanyl)-4-(trifluoromethyl)phenyl]-5-(methylsulfonyl)-4,5,6,7-tetrahydro-1H-pyrazolo[4,3-c]pyridin-1-yl}propyl)-4-pyridin-2-ylpiperidin-4-ol], the IC50 – broadly, the concentration at which inhibition is half-maximal – was determined as 55 nM.

On to `O=C(CSc1cc(-c2nn(CC(O)CN3CCc4ccccc4C3)c3c2CNCC3)ccc1C(F)(F)F)N1CCCC1` (stereo not drawn) [Example 313, 1-(3,4-Dihydroisoquinolin-2(1H)-yl)-3-(3-{3-[(2-oxo-2-pyrrolidin-1-ylethyl)sulfanyl]-4-(trifluoromethyl)phenyl}-4,5,6,7-tetrahydro-1H-pyrazolo[4,3-c]pyridin-1-yl)propan-2-ol], for which the IC50 worked out at 1820 nM.

On to `CC1C(=O)NCCN1CCSc1cc(-c2nn(CC(O)CN3CCC(O)(c4ccccn4)CC3)c3c2CN(S(C)(=O)=O)CC3)ccc1C(F)(F)F` (stereo not drawn) [Example 836, 4-(2-{[5-{1-[2-Hydroxy-3-(4-hydroxy-4-pyridin-2-ylpiperidin-1-yl)propyl]-5-(methylsulfonyl)-4,5,6,7-tetrahydro-1H-pyrazolo[4,3-c]pyridin-3-yl}-2-(trifluoromethyl)phenyl]sulfanyl}ethyl)-3-methylpiperazin-2-one], for which the IC50 came to 180 nM.

In the case of `CC(=O)OCC(=O)N1CCc2c(c(-c3ccc(C(F)(F)F)c(SCCNC(=O)OCc4ccccc4)c3)nn2CC(O)CN2CCC(c3ccccn3)CC2)C1` (stereo not drawn) [Example 885, 2-{1-[2-Hydroxy-3-(4-pyridin-2-ylpiperidin-1-yl)propyl]-3-[3-{[2-({[(phenylmethyl)oxy]carbonyl}amino)ethyl]sulfanyl}-4-(trifluoromethyl)phenyl]-1,4,6,7-tetrahydro-5H-pyrazolo[4,3-c]pyridin-5-yl}-2-oxoethyl acetate], the IC50 is 70 nM.

As for `CS(=O)(=O)NC1CCN(CC(O)Cn2nc(-c3ccc(C(F)(F)F)c(SCCN4CCCCC4)c3)c3c2CCNC3)CC1` (stereo not drawn) [Example 381, N-{1-[2-Hydroxy-3-(3-{3-[(2-piperidin-1-ylethyl)sulfanyl]-4-(trifluoromethyl)phenyl}-4,5,6,7-tetrahydro-1H-pyrazolo[4,3-c]pyridin-1-yl)propyl]piperidin-4-yl}methanesulfonamide], the IC50 worked out at 3850 nM.

Regarding `CS(=O)(=O)N1CCc2c(c(-c3ccc(C(F)(F)F)c(SCC(=O)N4CCCC4)c3)nn2CC(O)CN2CCC(N3CCCC3=O)CC2)C1` (stereo not drawn) [Example 65, 1-[1-(2-Hydroxy-3-{5-methanesulfonyl-3-[3-(2-oxo-2-pyrrolidin-1-yl-ethylsulfanyl)-4-trifluoromethyl-phenyl]-4,5,6,7-tetrahydro-pyrazolo[4,3-c]pyridin-1-yl}-propyl)-piperidin-4-yl]-pyrrolidin-2-one], the IC50 was determined as 100 nM.

Regarding `CC1CCN(C[C@H](O)Cn2nc(-c3ccc(C(F)(F)F)c(SCCN4CCC(F)(F)CC4)c3)c3c2CCN(S(C)(=O)=O)C3)CC1` [Example 576, (2S)-1-{3-[3-{[2-(4,4-Difluoropiperidin-1-yl)ethyl]sulfanyl}-4-(trifluoromethyl)phenyl]-5-(methylsulfonyl)-4,5,6,7-tetrahydro-1H-pyrazolo[4,3-c]pyridin-1-yl}-3-(4-methylpiperidin-1-yl)propan-2-ol], the IC50 is 85 nM.

Regarding `CS(=O)(=O)N1CCc2c(c(-c3ccc(C(F)(F)F)c(SCCN4CCOC(CO)C4)c3)nn2CC(O)CN2CCC(N3CCCC3=O)CC2)C1` (stereo not drawn) [Example 165, 1-[1-(2-Hydroxy-3-{3-[3-({2-[2-(hydroxymethyl)morpholin-4-yl]ethyl}sulfanyl)-4-(trifluoromethyl)phenyl]-5-(methylsulfonyl)-4,5,6,7-tetrahydro-1H-pyrazolo[4,3-c]pyridin-1-yl}propyl)piperidin-4-yl]pyrrolidin-2-one], the IC50 came to 60 nM.

With `CS(=O)(=O)N1CCc2c(c(-c3ccc(C(F)(F)F)c(SCCN4CCOCC4)c3)nn2CC(O)CN2CCC(Oc3ncccn3)CC2)C1` (stereo not drawn) [Example 740, 1-[5-(Methylsulfonyl)-3-{3-[(2-morpholin-4-ylethyl)sulfanyl]-4-(trifluoromethyl)phenyl}-4,5,6,7-tetrahydro-1H-pyrazolo[4,3-c]pyridin-1-yl]-3-[4-(pyrimidin-2-yloxy)piperidin-1-yl]propan-2-ol], the IC50 amounted to 120 nM.

With `CS(=O)(=O)N1CCc2c(c(-c3ccc(C(F)(F)F)c(SCCN4CCC(F)CC4)c3)nn2C[C@@H](O)CN2CCCCC2c2cccnc2)C1` (stereo partly drawn) [Example 735, (2S)-1-{3-[3-{[2-(4-Fluoropiperidin-1-yl)ethyl]sulfanyl}-4-(trifluoromethyl)phenyl]-5-(methylsulfonyl)-4,5,6,7-tetrahydro-1H-pyrazolo[4,3-c]pyridin-1-yl}-3-(2-pyridin-3-ylpiperidin-1-yl)propan-2-ol], the IC50 was determined as 7140 nM.

As to `CS(=O)(=O)N1CCc2c(c(-c3ccc(C(F)(F)F)c(SCCN4CCC(N5CCCC5)CC4)c3)nn2CC(O)CN2CCC(c3ccccn3)CC2)C1` (stereo not drawn) [Example 185, 1-{5-(Methylsulfonyl)-3-[3-{[2-(4-pyrrolidin-1-ylpiperidin-1-yl)ethyl]sulfanyl}-4-(trifluoromethyl)phenyl]-4,5,6,7-tetrahydro-1H-pyrazolo[4,3-c]pyridin-1-yl}-3-(4-pyridin-2-ylpiperidin-1-yl)propan-2-ol], the IC50 was 90 nM.

`CS(=O)(=O)N1CCc2c(c(-c3ccc(C(F)(F)F)c(SCCN4CCOCC4)c3)nn2CC(O)CN2CCC3CCCCC3C2)C1` (stereo not drawn) [Example 595, 1-[5-(Methylsulfonyl)-3-{3-[(2-morpholin-4-ylethyl)sulfanyl]-4-(trifluoromethyl)phenyl}-4,5,6,7-tetrahydro-1H-pyrazolo[4,3-c]pyridin-1-yl]-3-(octahydroisoquinolin-2(1H)-yl)propan-2-ol]: the IC50 was found to be 410 nM.

As for `CC1CCN(CCSc2cc(-c3nn(C[C@@H](O)CN4CCSCC4)c4c3CN(S(C)(=O)=O)CC4)ccc2C(F)(F)F)CC1` [Example 467, (2S)-1-{3-[3-{[2-(4-Methylpiperidin-1-yl)ethyl]sulfanyl}-4-(trifluoromethyl)phenyl]-5-(methylsulfonyl)-4,5,6,7-tetrahydro-1H-pyrazolo[4,3-c]pyridin-1-yl}-3-thiomorpholin-4-ylpropan-2-ol], the IC50 came out at 290 nM.

For the compound `CCS(=O)(=O)NC1CCN(CC(O)Cn2nc(-c3ccc(C(F)(F)F)c(SCCN4CCCC4)c3)c3c2CCN(S(C)(=O)=O)C3)CC1` (stereo not drawn) [Example 715, N-(1-{2-Hydroxy-3-[5-(methylsulfonyl)-3-{3-[(2-pyrrolidin-1-ylethyl)sulfanyl]-4-(trifluoromethyl)phenyl}-4,5,6,7-tetrahydro-1H-pyrazolo[4,3-c]pyridin-1-yl]propyl}piperidin-4-yl)ethanesulfonamide], the IC50 was found to be 680 nM.

For `COc1ccccc1C1CCN(CC(O)Cn2nc(-c3ccc(C(F)(F)F)c(SCC(=O)N4CCOCC4)c3)c3c2CCN(C(C)=O)C3)CC1` (stereo not drawn) [Example 277, 1-(5-Acetyl-3-{3-[(2-morpholin-4-yl-2-oxoethyl)sulfanyl]-4-(trifluoromethyl)phenyl}-4,5,6,7-tetrahydro-1H-pyrazolo[4,3-c]pyridin-1-yl)-3-{4-[2-(methyloxy)phenyl]piperidin-1-yl}propan-2-ol], the IC50 stood at 20 nM.
